# Assays:
# Chains of the proteins cited; added tags and fusions are not shown. Lines headed by an entry give the natural chain unless they say otherwise; changes in a name come on top.
# UniProt P08254: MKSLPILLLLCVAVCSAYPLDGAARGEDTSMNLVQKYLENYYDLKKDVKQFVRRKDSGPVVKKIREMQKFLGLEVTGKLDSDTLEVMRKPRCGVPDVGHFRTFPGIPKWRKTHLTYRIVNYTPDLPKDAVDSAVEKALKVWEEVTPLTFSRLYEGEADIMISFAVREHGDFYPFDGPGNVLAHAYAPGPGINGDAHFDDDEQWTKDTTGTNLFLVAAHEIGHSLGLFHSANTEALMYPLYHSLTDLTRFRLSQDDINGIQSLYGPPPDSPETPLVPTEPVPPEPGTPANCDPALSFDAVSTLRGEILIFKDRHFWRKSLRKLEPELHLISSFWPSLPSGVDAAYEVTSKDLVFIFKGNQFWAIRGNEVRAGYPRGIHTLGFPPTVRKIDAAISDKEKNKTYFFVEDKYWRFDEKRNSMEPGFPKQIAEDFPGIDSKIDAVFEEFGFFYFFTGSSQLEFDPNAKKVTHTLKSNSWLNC
# UniProt P08253: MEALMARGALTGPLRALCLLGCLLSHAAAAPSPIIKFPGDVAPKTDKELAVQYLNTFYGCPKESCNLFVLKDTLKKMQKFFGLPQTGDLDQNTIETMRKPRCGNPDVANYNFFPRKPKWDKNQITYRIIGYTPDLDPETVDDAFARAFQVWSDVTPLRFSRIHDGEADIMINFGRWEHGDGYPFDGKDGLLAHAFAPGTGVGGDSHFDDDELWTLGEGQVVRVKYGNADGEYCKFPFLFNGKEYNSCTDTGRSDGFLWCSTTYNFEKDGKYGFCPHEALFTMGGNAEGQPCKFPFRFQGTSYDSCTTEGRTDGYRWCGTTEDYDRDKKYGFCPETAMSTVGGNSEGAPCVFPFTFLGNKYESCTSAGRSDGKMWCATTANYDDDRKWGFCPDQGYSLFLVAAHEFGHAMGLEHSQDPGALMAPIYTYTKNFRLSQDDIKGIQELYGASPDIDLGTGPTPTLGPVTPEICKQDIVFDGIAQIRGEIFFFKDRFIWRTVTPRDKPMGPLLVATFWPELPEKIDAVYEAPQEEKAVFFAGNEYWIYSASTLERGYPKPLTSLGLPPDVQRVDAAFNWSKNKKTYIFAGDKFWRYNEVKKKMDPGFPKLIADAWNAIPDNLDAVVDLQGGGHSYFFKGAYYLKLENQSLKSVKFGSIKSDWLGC
# [1] = biological target: T1, Nitric oxide synthase, inducible (Mus musculus) (UniProt P29477); conditions: at 1 mM;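 further: recombinant enzyme, activity read out colorimetrically after 40 min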
# T1 sequence (whole entry): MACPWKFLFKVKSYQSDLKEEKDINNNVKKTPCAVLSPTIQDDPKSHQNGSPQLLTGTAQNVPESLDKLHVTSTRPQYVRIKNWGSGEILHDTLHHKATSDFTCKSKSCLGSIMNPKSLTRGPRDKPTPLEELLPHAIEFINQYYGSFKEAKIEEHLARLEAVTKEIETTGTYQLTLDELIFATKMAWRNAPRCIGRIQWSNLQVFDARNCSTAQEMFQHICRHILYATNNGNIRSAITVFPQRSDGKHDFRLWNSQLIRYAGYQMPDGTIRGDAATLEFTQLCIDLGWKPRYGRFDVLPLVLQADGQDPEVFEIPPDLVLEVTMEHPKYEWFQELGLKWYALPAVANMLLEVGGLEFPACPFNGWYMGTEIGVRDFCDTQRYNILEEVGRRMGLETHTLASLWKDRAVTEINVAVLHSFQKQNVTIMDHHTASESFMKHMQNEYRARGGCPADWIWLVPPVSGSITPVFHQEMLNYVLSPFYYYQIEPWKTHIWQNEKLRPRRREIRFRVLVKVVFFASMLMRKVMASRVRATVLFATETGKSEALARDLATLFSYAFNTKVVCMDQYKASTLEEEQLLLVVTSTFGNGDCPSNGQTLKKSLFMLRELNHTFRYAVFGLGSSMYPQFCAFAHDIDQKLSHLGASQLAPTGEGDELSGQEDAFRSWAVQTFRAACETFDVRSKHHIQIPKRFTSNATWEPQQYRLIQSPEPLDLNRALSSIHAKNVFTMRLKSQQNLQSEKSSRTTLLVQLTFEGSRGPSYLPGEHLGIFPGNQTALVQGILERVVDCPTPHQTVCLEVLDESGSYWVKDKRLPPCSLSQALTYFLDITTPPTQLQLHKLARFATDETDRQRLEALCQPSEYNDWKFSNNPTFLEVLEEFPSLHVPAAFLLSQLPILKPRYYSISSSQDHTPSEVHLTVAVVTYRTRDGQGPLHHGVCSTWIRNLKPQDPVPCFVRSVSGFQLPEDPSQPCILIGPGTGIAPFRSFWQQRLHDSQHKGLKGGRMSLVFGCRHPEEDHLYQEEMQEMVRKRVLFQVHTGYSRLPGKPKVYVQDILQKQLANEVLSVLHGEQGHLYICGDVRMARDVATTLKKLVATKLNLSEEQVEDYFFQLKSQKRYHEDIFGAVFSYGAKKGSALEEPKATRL
# [2] = biological target: Stromelysin-1 (Homo sapiens) (UniProt P08254); conditions: at 1 mM;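 further: recombinant enzyme, inhibition read after a 30 min incubation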
# [3] = biological target: T2, Polyunsaturated fatty acid 5-lipoxygenase (Homo sapiens) (UniProt P09917); experiment: Inhibition of human recombinant 5-lipoxygenase at 1 mM after 10 mins by fluorescence assay
# T2 sequence (whole entry): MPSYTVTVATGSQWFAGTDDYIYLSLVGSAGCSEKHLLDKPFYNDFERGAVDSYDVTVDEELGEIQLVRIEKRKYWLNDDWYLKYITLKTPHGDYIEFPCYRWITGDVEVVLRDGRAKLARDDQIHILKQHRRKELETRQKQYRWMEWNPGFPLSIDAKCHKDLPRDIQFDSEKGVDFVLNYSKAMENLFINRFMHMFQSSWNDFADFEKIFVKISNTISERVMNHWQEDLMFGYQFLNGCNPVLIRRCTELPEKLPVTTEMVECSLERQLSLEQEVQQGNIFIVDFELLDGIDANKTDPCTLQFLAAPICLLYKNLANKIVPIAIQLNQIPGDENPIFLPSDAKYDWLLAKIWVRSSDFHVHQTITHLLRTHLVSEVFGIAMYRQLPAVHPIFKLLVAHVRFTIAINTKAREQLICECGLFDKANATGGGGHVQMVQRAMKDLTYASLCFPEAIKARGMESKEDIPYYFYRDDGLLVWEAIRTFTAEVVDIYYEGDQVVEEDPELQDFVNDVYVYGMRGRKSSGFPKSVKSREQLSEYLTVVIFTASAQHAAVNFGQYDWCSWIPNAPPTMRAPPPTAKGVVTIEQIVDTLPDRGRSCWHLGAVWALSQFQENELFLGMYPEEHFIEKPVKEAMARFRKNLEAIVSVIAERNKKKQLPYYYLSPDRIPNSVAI
# [4] = biological target: 72 kDa type IV collagenase (Homo sapiens, UniProt P08253); conditions: at 1 mM;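 further: recombinant human enzyme, inhibition read after a 30 min incubation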
smiles,measurement,setting,value
O=c1ccc2ccccc2[nH]1,inhibition,[1],54%
O=C(O)c1cccnc1C(=O)O,inhibition,[2],82%
O=c1cc[nH]c(=S)[nH]1,inhibition,[3],71%
Oc1nccc(S)n1,inhibition,[4],89%
